From ChEMBL document CHEMBL1128289, “Reductive chemistry of the novel hypoxia-selective cytotoxin 5-[N,N-bis(2-chloroethyl)amino]-2,4-dinitrobenzamide” (J Med Chem, 1995)

Tested on: CHO-AA8
Assay: Cytotoxicity in a growth inhibition assay against aerobic cultures of AA8 cells was determined
Type: functional, cell-based, Cricetulus griseus

Row | SMILES | IC50 [µM]
1 | NC(=O)c1cc(N(CCCl)CCCl)c([N+](=O)[O-])cc1N | 9.8
2 | NC(=O)c1cc(N(CCCl)CCCl)c(N)cc1N | 1
